Data set [1] addresses FXa-antithrombin III (FXa-ATIII) complex (Homo sapiens, UniProt P00742). In words: FXa-antithrombin III complex formation in FX deficient plasma (ELISA). It counts as biochemical. The method, then:
FIG. 5 provides a graph of FXa-antithrombin III (FXa-ATIII) complex formation as a function of incubation time. […] Samples were incubated for the indicated time and then all residual FXa was quenched by addition of 50 μM biotinylated glutamyl-glycinyl-arginyl-chloromethylketone (BEGRCK), which irreversibly modifies the active site of FXa and prevents further reaction with antithrombin III. FXa-ATIII levels were then measured with an enzyme-linked immunosorbent assay (ELISA) using an anti-FX capture antibody and an HRP-anti-ATIII detection antibody.

Protein sequences, listed by entry. Tags and fused reporters are not part of them. Residues count along the entry.
UniProt P00742, 41-179 limits assumed: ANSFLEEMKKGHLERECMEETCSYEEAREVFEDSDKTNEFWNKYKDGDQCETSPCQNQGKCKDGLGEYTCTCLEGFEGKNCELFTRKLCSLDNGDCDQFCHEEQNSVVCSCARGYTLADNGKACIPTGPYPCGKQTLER
UniProt P00742, 235-488 limits assumed: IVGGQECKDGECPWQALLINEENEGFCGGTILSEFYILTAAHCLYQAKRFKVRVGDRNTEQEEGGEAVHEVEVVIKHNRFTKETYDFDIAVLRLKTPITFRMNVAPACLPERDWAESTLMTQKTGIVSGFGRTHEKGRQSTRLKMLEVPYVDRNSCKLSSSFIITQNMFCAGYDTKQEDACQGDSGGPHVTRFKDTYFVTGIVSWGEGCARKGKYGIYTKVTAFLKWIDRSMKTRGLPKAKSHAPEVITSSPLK

For data set [2] the following is noted: human.
The conditions of data set [3]: cited from earlier work.

Read-outs that look alike come from different tables or passages of the source. Where only a bound is given, the exact number is not on record here.

With “WT FXa: wild-type activated coagulation Factor X (FXa), serine protease”, the “time until nearly all added FXa is incorporated in FXa-ATIII complex” value in data set [1] (25 nM WT FXa in FX-deficient plasma, no rivaroxaban) was at most 5 min. In data set [1] (25 nM WT FXa, 1 μM rivaroxaban, after 90 minutes), the “fraction of added FXa inactivated by ATIII” value is reported as “about half”. The half-life in plasma in data set [2] was 4.6 min; in data set [3] it was “approximately 1 minute”.

Values taken from patent publication US20160235824A1, “Compositions and Methods for Increasing the Half-Life of Factor XA” (THE CHILDREN'S HOSPITAL OF PHILADELPHIA, priority 2013, published 2016).
